Assay results published in patent publication US9540377B2, “2,6,7,8 substituted purines as HDM2 inhibitors” (Merck Sharp & Dohme Corp., priority 2013, dated 2017).

The chains behind the UniProt entries cited, without tags or fusion partners. Residues count along the entry.
UniProt Q00987, 17-125: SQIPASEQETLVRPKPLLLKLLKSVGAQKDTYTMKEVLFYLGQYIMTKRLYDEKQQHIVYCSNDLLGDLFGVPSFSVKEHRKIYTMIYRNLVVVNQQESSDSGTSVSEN

Target: HDM2 (truncated, residues 17 to 125, containing p53 binding surface) (Homo sapiens (Human), UniProt Q00987)
Assay: HDM2 FRET assay (inhibition of binding of FITC labeled p53-site peptide to HDM2)
Description: (containing p53 binding surface, Science (1994) 265, 346-355), with N-terminal His and Thioredoxin tag was generated in pET32a expression vector and expressed in E. coli strain BL21(DE3)Rosetta. […] IC50 DETERMINATIONS: Dose-response curves were plotted from the inhibition data, from 10 point serial dilutions of inhibitory compounds. Concentration of compound was plotted against em520/Cem495 ratio signal. To generate IC50 values, the dose-response curves were fitted to a standard sigmoidal curve and IC50 values were derived by nonlinear regression analysis.

C[C@@H]1[C@@H](C)OCCN1c1nc2nc(-c3noc(=O)[nH]3)nc(-c3cccc(Cl)c3)c2n1C[C@H]1CC[C@H](C)CC1 (racemic) [Example 16.102, 3-{6-(3-chlorophenyl)-8-[(trans)-2,3-dimethylmorpholin-4-yl]-7-[(trans-4-methylcyclohexyl)methyl]-7H-purin-2-yl}-1,2,4-oxadiazol-5(4H)-one]
IC50 (Table 16): 7.8 nM

CC(F)(c1ccccc1F)c1nc2nc(C(=O)O)nc(-c3cncc(Cl)c3)c2n1C[C@H]1CC[C@H](C)CC1 (single isomer, unassigned) [Example 23.66, 6-(5-chloropyridin-3-yl)-8-[1-fluoro-1-(2-fluorophenyl)ethyl]-7-[(trans-4-methylcyclohexyl)methyl]-7H-purine-2-carboxylic acid]
IC50 (Table 23): 5.82 nM

C[C@@H](Nc1nc([S+]([O-])CC(F)(F)F)nc2nc(N3CCOC[C@H]3c3ccccc3)n(C[C@H]3CC[C@H](C)CC3)c12)C1CCC1 (single isomer, unassigned) [Example 14.16]
IC50 (Table 14): 17.4 nM

COC(c1ccccc1)c1nc2nc(-c3noc(=O)[nH]3)nc(-c3cncc(Cl)c3)c2n1C[C@H]1CC[C@H](C)CC1 (single isomer, unassigned) [Example 23.48, 3-{6-(5-chloropyridin-3-yl)-8-[methoxy(phenyl)methyl]-7-[(trans-4-methylcyclohexyl)methyl]-7H-purin-2-yl}-1,2,4-oxadiazol-5(4H)-one]
IC50 (Table 23): 4.22 nM

COC1(c2nc3nc(-c4noc(=O)[nH]4)nc(-c4cncc(Cl)c4)c3n2C[C@H]2CC[C@H](C)CC2)CCOCC1C (single isomer, unassigned) [Example 23.96, 1,5-anhydro-3-C-[6-(5-chloropyridin-3-yl)-7-[(trans-4-methylcyclohexyl)methyl]-2-(5-oxo-4,5-dihydro-1,2,4-oxadiazol-3-yl)-7H-purin-8-yl]-2,4-dideoxy-2-methyl-3-O-methylpentitol]
IC50 (Table 23): 12.1 nM

C[C@H]1CC[C@H](Cn2c(C(O)c3ccccc3)nc3nc(-c4noc(=O)[nH]4)nc(-c4cccc(Cl)c4)c32)CC1 (single isomer, unassigned) [Example 23.41, 3-{6-(3-chlorophenyl)-8-[hydroxy(phenyl)methyl]-7-[(trans-4-methylcyclohexyl)methyl]-7H-purin-2-yl}-1,2,4-oxadiazol-5(4H)-one]
IC50 (Table 23): 18.5 nM

COC(c1ccccn1)c1nc2nc(-c3noc(=O)[nH]3)nc(-c3cccc(Cl)c3)c2n1C[C@H]1CC[C@H](C)CC1 (single isomer, unassigned) [Example 23.45, 3-{6-(3-chlorophenyl)-8-[methoxy(pyridin-2-yl)methyl]-7-[(trans-4-methylcyclohexyl)methyl]-7H-purin-2-yl}-1,2,4-oxadiazol-5(4H)-one]
IC50 (Table 23): 5.15 nM

COC(C)(c1ccccc1C#N)c1nc2nc(-c3noc(=O)[nH]3)nc(-c3cncc(Cl)c3)c2n1C[C@H]1CC[C@H](C)CC1 (single isomer, unassigned) [Example 23.112, 2-{1-[6-(5-chloropyridin-3-yl)-7-[(trans-4-methylcyclohexyl)methyl]-2-(5-oxo-4,5-dihydro-1,2,4-oxadiazol-3-yl)-7H-purin-8-yl]-1-methoxyethyl}benzonitrile]
IC50 (Table 23): 2.77 nM

COC(c1ccccc1)c1nc2nc(-c3noc(=O)[nH]3)nc(-c3cncc(Cl)c3)c2n1C[C@H]1CC[C@H](C)CC1 (single isomer, unassigned) [Example 23.47, 3-{6-(5-chloropyridin-3-yl)-8-[methoxy(phenyl)methyl]-7-[(trans-4-methylcyclohexyl)methyl]-7H-purin-2-yl}-1,2,4-oxadiazol-5(4H)-one]
IC50 (Table 23): 9.77 nM

COC(c1nc2nc(-c3noc(=O)[nH]3)nc(-c3cncc(Cl)c3)c2n1C[C@H]1CC[C@H](C)CC1)C1CCCCC1 (mixture of isomers) [Example 23.21, 3-{6-(5-chloropyridin-3-yl)-8-[cyclohexyl(methoxy)methyl]-7-[(trans-4-methylcyclohexyl)methyl]-7H-purin-2-yl}-1,2,4-oxadiazol-5(4H)-one]
IC50 (Table 23): 10.4 nM

C[C@@H]1OCCN(c2nc3nc(-c4n[nH]c(=O)o4)nc(-c4cccc(Cl)c4)c3n2C[C@H]2CC[C@H](C)CC2)[C@@H]1C (racemic) [Example 16.101, 5-{6-(3-chlorophenyl)-8-[(cis)-2,3-dimethylmorpholin-4-yl]-7-[(trans-4-methylcyclohexyl)methyl]-7H-purin-2-yl}-1,3,4-oxadiazol-2(3H)-one]
IC50 (Table 16): 41.3 nM

COC(C)(c1ccccc1C#N)c1nc2nc(-c3noc(=O)[nH]3)nc(-c3cncc(Cl)c3)c2n1C[C@H]1CC[C@H](C)CC1 (single isomer, unassigned) [Example 23.111, 2-{1-[6-(5-chloropyridin-3-yl)-7-[(trans-4-methylcyclohexyl)methyl]-2-(5-oxo-4,5-dihydro-1,2,4-oxadiazol-3-yl)-7H-purin-8-yl]-1-methoxyethyl}benzonitrile]
IC50 (Table 23): 0.435 nM

C[C@H]1CC[C@H](Cn2c(C(O)c3ccccc3)nc3nc(-c4noc(=O)[nH]4)nc(-c4cccc(Cl)c4)c32)CC1 (single isomer, unassigned) [Example 23.42, 3-{6-(3-chlorophenyl)-8-[hydroxy(phenyl)methyl]-7-[(trans-4-methylcyclohexyl)methyl]-7H-purin-2-yl}-1,2,4-oxadiazol-5(4H)-one]
IC50 (Table 23): 6.89 nM

C[C@@H]1[C@@H](C)OCCN1c1nc2nc(-c3n[nH]c(=O)o3)nc(-c3cccc(Cl)c3)c2n1C[C@H]1CC[C@H](C)CC1 (racemic) [Example 16.134, 5-{6-(3-chlorophenyl)-8-[(trans)-2,3-dimethylmorpholin-4-yl]-7-[(trans-4-methylcyclohexyl)methyl]-7H-purin-2-yl}-1,3,4-oxadiazol-2(3H)-one]
IC50 (Table 16): 11.1 nM

CC(F)(c1ccccc1F)c1nc2nc(C(=O)O)nc(-c3cncc(Cl)c3)c2n1C[C@H]1CC[C@H](C)CC1 (single isomer, unassigned) [Example 23.67, 6-(5-chloropyridin-3-yl)-8-[1-fluoro-1-(2-fluorophenyl)ethyl]-7-[(trans-4-methylcyclohexyl)methyl]-7H-purine-2-carboxylic acid]
IC50 (Table 23): 0.176 nM

COC(C)(c1ccccn1)c1nc2nc(-c3nc(=O)o[nH]3)nc(-c3cccc(Cl)c3)c2n1C[C@H]1CC[C@H](C)CC1 (single isomer, unassigned) [Example 23.53, 3-{6-(3-chlorophenyl)-8-[1-methoxy-1-(pyridin-2-yl)ethyl]-7-[(trans-4-methylcyclohexyl)methyl]-7H-purin-2-yl}-1,2,4-oxadiazol-5(2H)-one]
IC50 (Table 23): 3.34 nM

CC(F)(c1cccc(Cl)c1F)c1nc2nc(-c3n[nH]c(=O)o3)nc(-c3cncc(Cl)c3)c2n1C[C@H]1CC[C@H](C)CC1 (single isomer, unassigned) [Example 23.60, 5-{8-[1-(3-chloro-2-fluorophenyl)-1-fluoroethyl]-6-(5-chloropyridin-3-yl)-7-[(trans-4-methylcyclohexyl)methyl]-7H-purin-2-yl}-1,3,4-oxadiazol-2(3H)-one]
IC50 (Table 23): 29 nM

COC(C)(C)C1CCCN1c1nc2nc(-c3noc(=O)[nH]3)nc(-c3cccc(Cl)c3)c2n1C[C@H]1CC[C@H](C)CC1 (single isomer, unassigned) [Example 16.65, 3-{6-(3-chlorophenyl)-8-[2-(1-methoxy-1-methylethyl)pyrrolidin-1-yl]-7-[(trans-4-methylcyclohexyl)methyl]-7H-purin-2-yl}-1,2,4-oxadiazol-5(4H)-one]
IC50 (Table 16): 0.658 nM

COCC(C)(F)c1nc2nc(-c3noc(=O)[nH]3)nc(-c3cncc(Cl)c3)c2n1C[C@H]1CC[C@H](C)CC1 (mixture of isomers) [Example 23.108, 3-{6-(5-chloropyridin-3-yl)-8-(1-fluoro-2-methoxy-1-methylethyl)-7-[(trans-4-methylcyclohexyl)methyl]-7H-purin-2-yl}-1,2,4-oxadiazol-5(4H)-one]
IC50 (Table 23): 3.77 nM

COC(c1nc2nc(-c3noc(=O)[nH]3)nc(-c3cccc(Cl)c3)c2n1C[C@H]1CC[C@H](C)CC1)C1CCCCC1 (mixture of isomers) [Example 23.14, 3-{6-(3-chlorophenyl)-8-[cyclohexyl(methoxy)methyl]-7-[(trans-4-methylcyclohexyl)methyl]-7H-purin-2-yl}-1,2,4-oxadiazol-5(4H)-one]
IC50 (Table 23): 9.03 nM

C[C@H]1CC[C@H](Cn2c(C3OCCc4ccccc43)nc3nc(-c4noc(=O)[nH]4)nc(-c4cncc(Cl)c4)c32)CC1 (single isomer, unassigned) [Example 23.104, 3-{6-(5-chloropyridin-3-yl)-8-(3,4-dihydro-1H-isochromen-1-yl)-7-[(trans-4-methylcyclohexyl)methyl]-7H-purin-2-yl}-1,2,4-oxadiazol-5(4H)-one]
IC50 (Table 23): 1.03 nM

COC(C)(c1csc(C)n1)c1nc2nc(-c3n[nH]c(=O)o3)nc(-c3cncc(Cl)c3)c2n1C[C@H]1CC[C@H](C)CC1 (mixture of isomers) [Example 23.51, 5-{6-(5-chloropyridin-3-yl)-8-[1-methoxy-1-(2-methyl-1,3-thiazol-4-yl)ethyl]-7-[(trans-4-methylcyclohexyl)methyl]-7H-purin-2-yl}-1,3,4-oxadiazol-2(3H)-one]
IC50 (Table 23): 5.19 nM

COC(C)(C)C1CCCN1c1nc2nc(-c3noc(=O)[nH]3)nc(-c3cccc(Cl)c3)c2n1C[C@H]1CC[C@H](C)CC1 (single isomer, unassigned) [Example 16.66, 3-{6-(3-chlorophenyl)-8-[2-(1-methoxy-1-methylethyl)pyrrolidin-1-yl]-7-[(trans-4-methylcyclohexyl)methyl]-7H-purin-2-yl}-1,2,4-oxadiazol-5(4H)-one]
IC50 (Table 16): 1.24 nM

CC(O)(c1nc2nc(-c3n[nH]c(=O)o3)nc(-c3cccc(Cl)c3)c2n1C[C@H]1CC[C@H](C)CC1)C1CCOCC1 (mixture of isomers) [Example 23.13, 5-{6-(3-chlorophenyl)-8-[1-hydroxy-1-(tetrahydro-2H-pyran-4-yl)ethyl]-7-[(trans-4-methylcyclohexyl)methyl]-7H-purin-2-yl}-1,3,4-oxadiazol-2(3H)-one]
IC50 (Table 23): 22.7 nM
